Source: patent publication US9290528B1, “Light-activated compounds” (University of Kentucky Research Foundation, priority 2013, dated 2016)

Legend:
HL60 cells [1] = assay: Cellular uptake by flow cytometry; conditions: for uptake of 9 compared with 10 (increase in signal): 9 at 5 μM, 10 at 20 μM
HL60 cells [2] = tested on: HL60 cells

Ru(bathophenanthroline)3 [Compound 9] was tested, and the “increase of average emission of cells between 2 and 24 hours” value (HL60 cells [1]) was 2.8 fold, the “uptake of 9 compared with 10 (increase in signal)” value (HL60 cells [1]; 2 hours) was 11.6 fold and the “uptake of 9 compared with 10 (increase in signal)” value (HL60 cells [1]; 24 hours) was 8.2 fold. The “increase of relative amount in cells from 2 to 24 hours” value (HL60 cells [2]) was “approximately 4 fold” and the “relative amount of compound in cells versus the cell media” value (HL60 cells [2]) was 5.6%.
